DT40 TDP1 no CPT = qHTS for Inhibitors of human tyrosyl-DNA phosphodiesterase 1 (TDP1): qHTS in cells in absence of CPT. DT40 Tdp1-/- hTDP1 cells, no CPT, ATP luminescence, 48 h. Potency, µM (highest dose often 46.2 µM), without a hit: top-dose activity change, negative = growth inhibition, actives largely listed as inhibitors. 420,000 compounds, 15% hits. AID 686978, 2013; note: potency is the fitted concentration of half-maximal effect; % is set by controls: 0 for no effect and ±100 for the full control effect; nearly all actives have a fitted effect of over 55% in size
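Growth kinetics read by CellTiter-Glo luminescence after ≥48 hr at 37 °C. Cells: DT40 Tdp1-/- stably carrying human TDP1, 400 per well, compound exposure in the absence of CPT (DMSO vehicle).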
uPA generation = inhibitors of cell surface uPA generation | Potency, µM (top dose mostly 38.3 µM), for the others: top-dose activity change, negative = inhibition, actives largely listed as inhibitors | 330,000 compounds, 0.31% hits | cell surface uPA generation assay, qHTS; active = well fitted inhibition curve with a large enough effect; inconclusive = small, poorly fitted or top-dose-only effect; inactive = no such curve, though single readings can be large or run the other way; tested in mouse RAW 264.7 cells; note: potency is the fitted concentration of half-maximal effect; % is set by controls: 0 for no effect and ±100 for the full control effect; nearly all actives have a fitted effect of over 55% in size
miR-21 reporter = miR-21 reporter, rising signal | HeLa miR-21 FLuc reporter, luciferase, 48 h | Potency, µM (doses to about 38.3 µM), inactives show at the top dose reporter change, positive = more light | 340,000 tested, under 10 active | AID 2288; active = well fitted rising curve with a large enough effect; inconclusive = small, poorly fitted or top-dose-only effect; inactive = no such curve, though single readings can be large or run the other way;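 note: % of control where 0% means no effect; miR-21 action dims this reporter so a rising signal means less miR-21 action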
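HeLa cells stably expressing CMV-driven firefly luciferase with a downstream miR-21 binding sequence, endogenously expressing miR-21, were treated with titrations (up to about 40uM final) for 48 hours at 37 degree Celsius. Luciferase luminescence was read after lysis.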
TDP1 block = TDP1 (human) enzyme inhibition; Q9NUW8; recombinant TDP1, AlphaScreen DNA substrate cleavage; Potency, µM (highest dose often 130 µM), inactives show at the highest dose activity change, negative = inhibition, most hits filed as inhibitors; 350,000 compounds, 0.28% hits; AID 485290; note: potency is the fitted concentration of half-maximal effect; % is set by controls: 0 for no effect and ±100 for the full control effect; nearly all actives have a fitted effect of over 40% in size
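AlphaScreen read-out: signal falls as enzyme removes the 3' tyrosine-FITC from a 5'-biotinylated DNA oligo (15 nM, 5 min, RT). Enzyme was E. coli-made recombinant Tdp1 at 1 nM, exposed to compound for 15 min beforehand; beads 10 ug/ml, 10 min.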
TDP1 cell CPT = growth inhibition of DT40 Tdp1-/-;hTDP1 cells with camptothecin (screen for TDP1 inhibitors). 420,000 compounds, 12% hits. chicken DT40 Tdp1-/-;hTDP1 cells + 20 nM CPT, ATP luminescence, 48 h. Potency, µM (series often up to 46.2 µM), for inactives: at the top dose activity change, negative = growth inhibition, hits mostly inhibitors. AID 686979; note: potency is the fitted concentration of half-maximal effect; % is set by controls: 0 for no effect and ±100 for the full control effect; nearly all actives have a fitted effect of over 55% in size
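Cell growth measured by CellTiter-Glo luminescence after a minimum 48 h, 37 C compound exposure with 20 nM CPT in Tdp1-knockout DT40 cells stably expressing hTDP1, seeded 400/well; qHTS titration format.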
Starred values were filed as active, the others as inactive. Hits are enriched below; roughly 16% of the tested compounds scored in any of these assays. Unless noted, calls come from the whole dose curve; as a rule, active = well fitted curve in the direction sought with a large enough effect; inconclusive = small, poorly fitted or top-dose-only effect, or another doubt; inactive = no such curve, though single readings can be large; an effect the other way counts as inactive or inconclusive.

Preview (2 entries):
How did CCc1cc(=S)n2c([nH]c3ccccc32)c1C#N do in these assays?
DT40 TDP1 no CPT: 23µM*; uPA generation: -3%; miR-21 reporter: 10%; TDP1 block: 3%; TDP1 cell CPT: 16µM*

How did FC(F)(F)c1nc(N2CCCC2)ncc1-c1nnnn1-c1ccc(Cl)cc1 do in these assays?
DT40 TDP1 no CPT: 18µM*; uPA generation: -5%; miR-21 reporter: 19%; TDP1 block: 2%; TDP1 cell CPT: 21µM*

Results, repeating the preview:
How did CCc1cc(=S)n2c([nH]c3ccccc32)c1C#N do in these assays?
DT40 TDP1 no CPT: 23µM*; uPA generation: -3%; miR-21 reporter: 10%; TDP1 block: 3%; TDP1 cell CPT: 16µM*

How did FC(F)(F)c1nc(N2CCCC2)ncc1-c1nnnn1-c1ccc(Cl)cc1 do in these assays?
DT40 TDP1 no CPT: 18µM*; uPA generation: -5%; miR-21 reporter: 19%; TDP1 block: 2%; TDP1 cell CPT: 21µM*

What do the screens show for `Fc1ccc(-n2nnnc2-c2cnc(-c3cccs3)nc2C(F)(F)F)cc1`?
DT40 TDP1 no CPT: 4.6µM*; uPA generation: -8%; miR-21 reporter: inconclusive; TDP1 block: -3%; TDP1 cell CPT: 6.5µM*

Results for Cc1ccc(-n2nnnc2-c2cnc(-c3cccnc3)nc2C(F)(F)F)cc1 ?
DT40 TDP1 no CPT: 5.8µM*; uPA generation: -2%; miR-21 reporter: 6%; TDP1 block: 5%; TDP1 cell CPT: 18µM*

How did Cc1ccc(-n2nnnc2-c2cccnc2)cc1 do in these assays?
DT40 TDP1 no CPT: 7%; uPA generation: 6%; miR-21 reporter: -1%; TDP1 block: 5%; TDP1 cell CPT: -8%

What do the screens show for `c1ccc(-n2nnnc2-c2cnc(-c3ccncc3)nc2-c2cccs2)cc1`?
DT40 TDP1 no CPT: -27%; uPA generation: 7%; miR-21 reporter: -3%; TDP1 block: 0%; TDP1 cell CPT: -16%

Results for Cc1ccc(-n2nnnc2-c2cnn(-c3ccc(F)cc3)c2C(F)(F)F)cc1 ?
DT40 TDP1 no CPT: inconclusive; uPA generation: 3%; miR-21 reporter: 1%; TDP1 block: 0%; TDP1 cell CPT: 13µM*

What do the screens show for `Cn1c(C(C#N)C(=O)c2sc3ccccc3c2Cl)nc2ccccc21` (stereo not given)?
DT40 TDP1 no CPT: 16µM*; uPA generation: -4%; miR-21 reporter: -7%; TDP1 block: 11%; TDP1 cell CPT: inconclusive

What do the screens show for `O=C1SCCN1N=Cc1ccc([N+](=O)[O-])o1`?
DT40 TDP1 no CPT: 18µM*; uPA generation: -12%; TDP1 cell CPT: 8.2µM*

Results for O=C1C2C3C=CC(C4CC34)C2C(=O)N1/N=C/c1ccc(-c2ccc([N+](=O)[O-])cc2)o1 (stereo not given) ?
DT40 TDP1 no CPT: inconclusive; uPA generation: -2%; miR-21 reporter: 4%; TDP1 block: 6%; TDP1 cell CPT: inconclusive

What do the screens show for `CC1CN(N=Cc2ccc([N+](=O)[O-])o2)C(=N)O1` (stereo not given)?
DT40 TDP1 no CPT: 18µM*; uPA generation: -10%; TDP1 cell CPT: 21µM*

What do the screens show for `O=C1C2C(C(=O)N1/N=C/c1ccc([N+](=O)[O-])o1)C1C=CC2C12CC2` (stereo not given)?
DT40 TDP1 no CPT: 23µM*; uPA generation: -8%; miR-21 reporter: 15%; TDP1 block: 2%; TDP1 cell CPT: 16µM*

How did CNC[C@@H]1Oc2cc(Br)ccc2S(=O)(=O)N([C@H](C)CO)C[C@@H]1C do in these assays?
DT40 TDP1 no CPT: inconclusive; TDP1 cell CPT: -11%

Results for COc1ccc(N2CCN(Cc3cc(=O)oc4cc(C)c(Cl)c(C)c34)CC2)cc1 ?
DT40 TDP1 no CPT: 9.2µM*; uPA generation: -7%; miR-21 reporter: -2%; TDP1 block: 2%; TDP1 cell CPT: 15µM*

How did O=c1cc(CN(Cc2ccccc2)Cc2ccccc2)c2c(ccc3ccccc32)o1 do in these assays?
DT40 TDP1 no CPT: inconclusive; TDP1 cell CPT: 29µM*

Results for Cc1cc2oc(=O)cc(COC(=O)c3n[nH]c4ccccc34)c2cc1C ?
DT40 TDP1 no CPT: inconclusive; uPA generation: 1%; miR-21 reporter: -9%; TDP1 block: 8%; TDP1 cell CPT: inconclusive

What do the screens show for `COc1ccc2oc(=O)cc(CN3CCN(Cc4ccccc4)CC3)c2c1`?
DT40 TDP1 no CPT: inconclusive; miR-21 reporter: 27%; TDP1 block: 0%; TDP1 cell CPT: inconclusive

How did COc1ccc2c(COC(=O)c3n[nH]c4ccccc34)cc(=O)oc2c1 do in these assays?
DT40 TDP1 no CPT: 21µM*; uPA generation: -3%; miR-21 reporter: -50%; TDP1 block: 5%; TDP1 cell CPT: inconclusive

Screening results: PubChem BioAssay, National Center for Advancing Translational Sciences (NCATS)
